Test results taken from PubChem BioAssay AID652235 (Sanford-Burnham Center for Chemical Genomics, 2013).
Only a part is listed here, and it is no random draw. Active and inactive are the calls of the source.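 Rule for the calls: active = inhibition of at least 50% in the primary cell screen; inactive = the rest.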

Biological target: Matrix metalloproteinase-14 (Homo sapiens) (UniProt P50281)
Assay: MT1-MMP activation inhibitors, hit retest, confirmation, single concentration, fluorescence, HT1080 RFP-PRO-GFP cells (AID 652235)
Conditions: GFP and RFP fluorescence ratio, overnight, at 20 µM, stronger effect = higher value

In the case of Cc1ccc(NCCc2c([N+](=O)[O-])cc([N+](=O)[O-])cc2[N+](=O)[O-])cc1, the inhibition is reported as inactive: 6.13%.
